# Assay results from BindingDB's records for doi:10.1021/jm00147a037 (1985).
# Chains of the proteins cited; added tags and fusions are not shown.
# UniProt Q28044, whole entry: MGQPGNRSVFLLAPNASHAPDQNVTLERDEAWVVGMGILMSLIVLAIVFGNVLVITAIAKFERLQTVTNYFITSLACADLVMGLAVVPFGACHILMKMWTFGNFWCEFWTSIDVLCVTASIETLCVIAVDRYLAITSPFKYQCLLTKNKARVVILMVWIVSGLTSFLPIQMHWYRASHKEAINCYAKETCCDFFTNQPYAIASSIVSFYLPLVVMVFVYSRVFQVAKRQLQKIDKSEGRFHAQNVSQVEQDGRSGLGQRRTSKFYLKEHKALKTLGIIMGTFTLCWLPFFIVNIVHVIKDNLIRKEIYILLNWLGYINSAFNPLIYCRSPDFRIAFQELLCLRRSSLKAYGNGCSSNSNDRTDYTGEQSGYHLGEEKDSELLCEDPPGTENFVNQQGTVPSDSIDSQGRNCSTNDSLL
# Target: Beta-2 adrenergic receptor (Bos taurus, UniProt Q28044)
structure (smiles),measurement,value
CC(C)(C)NCC(O)c1cc(Cl)c(N)c(Cl)c1 (stereo unspecified) [Planipart],Kd,18 nM
